From US7053177B1, “Random peptides that bind to gastro-intestinal tract (GIT) transport receptors and related methods” (Cytogen Corporation, priority 1997, dated 2006)

System: rat gastro-intestinal tract (closed loop)
Test: Transport of preselected phage libraries in rat closed loop, detected by oligonucleotide hybridization/autoradiography
Conditions: hSI pool; in words

| Sequence | Transport from the closed loop model into the portal circulation | Presence in the intestine samples or fractions |
| --- | --- | --- |
| RGAADQRRGWSENLGLPRVGWDAIAHNSYTFTSRRPRPP [Phage SNi38] | transported | – |
| RTTTAKGCLLGSFGVLSGCSFTPTSPPPHLGYPPHSVN [Phage SNiAX6] | not transported | – |
| RVGQCTDSDVRRPWARSCAHQGCGAGTRNSHGCITRPLRQASAH [Phage SNi10] | transported | found in the intestine samples or fractions |
| SDSDGDHYGLRGGVRCSLRDRGCGLALSTVHAGPPSFYPKLSSP [Phage SNiAX2] | not transported | – |
| SGGEVSSWGRVNDLCARVSWTGCGTARSARTDNKGFLPKHSSLR [Phage SNi45] | not transported | – |
| SHSGGHMRAYGDVFRELRDRWNATSHHTRPTPQLPRGPN [Phage SNi28] | not transported | – |
| SPCGGSWGRFMQGGLFGGRTDGCGAHRNRTSASLEPPSSDY [Phage SNi34] | transported | – |
| SPKLSSVGVMTKVTELPTEGPNAISIPISATLGPRNPLR [Phage SNiAX8] | not transported | – |
